Assay results from patent publication US3980703A, “Extraction of carboxylic acids from dilute aqueous solutions” (The Dow Chemical Company, priority 1975, dated 1976).

Test: Extraction of acetic acid from 18% aqueous NaCl with polar extractants, distribution coefficient by radiometric counting (Example 1)
Format: physicochemical
Details: 0.5 M extractant in CHCl3; 1920 ppm acetic acid in 18% aqueous NaCl; equal volumes, 30 min

CCOP(=O)(NC1CCCCC1)OCC
Distribution coefficient (ratio of acetic acid concentrations in organic and aqueous phase): 1.13
